Measurements published in patent publication US9150592B2, “Heterocyclic nuclear hormone receptor modulators” (AbbVie Inc., priority 2012, dated 2015).

Chains of the proteins cited; added tags and fusions are not shown.
UniProt P04150, whole entry: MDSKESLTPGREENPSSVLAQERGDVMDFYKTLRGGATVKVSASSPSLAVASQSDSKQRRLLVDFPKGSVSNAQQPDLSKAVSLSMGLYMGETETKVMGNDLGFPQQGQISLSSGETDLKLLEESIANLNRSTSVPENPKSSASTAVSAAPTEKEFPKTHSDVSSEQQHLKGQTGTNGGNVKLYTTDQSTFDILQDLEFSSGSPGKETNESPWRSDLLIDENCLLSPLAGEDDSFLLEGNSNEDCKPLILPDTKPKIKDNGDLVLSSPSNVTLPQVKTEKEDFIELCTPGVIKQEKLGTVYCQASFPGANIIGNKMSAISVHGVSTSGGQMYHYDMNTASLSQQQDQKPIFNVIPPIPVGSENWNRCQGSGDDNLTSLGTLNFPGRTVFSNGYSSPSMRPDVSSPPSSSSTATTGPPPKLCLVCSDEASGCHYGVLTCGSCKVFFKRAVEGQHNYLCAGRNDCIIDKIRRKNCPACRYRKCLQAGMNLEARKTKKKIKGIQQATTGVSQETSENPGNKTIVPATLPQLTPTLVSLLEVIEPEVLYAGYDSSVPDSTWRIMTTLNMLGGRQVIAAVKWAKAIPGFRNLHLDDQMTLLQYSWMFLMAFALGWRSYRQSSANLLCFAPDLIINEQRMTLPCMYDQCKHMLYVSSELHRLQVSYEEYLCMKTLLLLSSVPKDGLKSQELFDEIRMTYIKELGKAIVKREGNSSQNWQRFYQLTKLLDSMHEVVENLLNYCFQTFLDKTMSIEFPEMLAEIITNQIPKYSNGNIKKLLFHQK

How the values were obtained:
[1] = tested on: IL-6 in A549 cells stimulated with IL-1β; experiment: A549 Cell Assay to Measure Inflammation Markers (inhibition of IL-1β-induced IL-6); details: intrinsic activity, Emax class ranges
[2] = biological target: Glucocorticoid Receptor (GR) (Homo sapiens, UniProt P04150); experiment: GR Fluorescence Polarization Assay (PolarScreen Glucocorticoid Receptor Competitor Assay, Red); details: read-out: GR binding, IC50 class ranges

Row | Compound | A549 Emax [1] | IC50 [2]
1 | Cc1cc(C2SCC(C)Nc3c2c(-c2ccccn2)nn3C)c(C)cc1Br (racemic) | B (a compound with Emax>60%) | < 100 nM
2 | Cc1cc(Br)ccc1C1SCC(C)Nc2c1c(-c1ncon1)nn2C (stereo not shown) | D (a compound with Emax<50%) | < 100 nM
